{
  "source": "paper PMC11594144",
  "about": "“Biophysical Analysis of Vip3Aa Toxin Mutants Before and After Activation” (2024)",
  "key": {"[1]": {"molecular_target": "Vip3Aa64 protoxin E168C (Bacillus thuringiensis)", "assay": "AUC"}, "[2]": {"molecular_target": "Vip3Aa64 protoxin E168C (Bacillus thuringiensis)", "assay": "mass photometry"}, "[3]": {"molecular_target": "Vip3Aa64 protoxin E168C:N242C (Bacillus thuringiensis)", "assay": "AUC"}, "[4]": {"molecular_target": "Vip3Aa64 protoxin E168C:N242C (Bacillus thuringiensis)", "assay": "mass photometry"}, "[5]": {"molecular_target": "Vip3Aa64 protoxin F229Y (Bacillus thuringiensis)", "assay": "AUC"}, "[6]": {"molecular_target": "Vip3Aa64 protoxin F229Y (Bacillus thuringiensis)", "assay": "mass photometry"}, "[7]": {"molecular_target": "Vip3Aa64 protoxin N242C (Bacillus thuringiensis)", "assay": "AUC"}, "[8]": {"molecular_target": "Vip3Aa64 protoxin N242C (Bacillus thuringiensis)", "assay": "mass photometry"}, "[9]": {"molecular_target": "Vip3Aa64 protoxin T167C (Bacillus thuringiensis)", "assay": "AUC"}, "[10]": {"molecular_target": "Vip3Aa64 protoxin T167C (Bacillus thuringiensis)", "assay": "mass photometry"}},
  "note": "“And” between values parts separate entries of the source, which are not always exact repeats. Equal entries are not always repeated.",
  "data": [
    {"substance": "Vip3Aa64 protoxin E168C (natural protein)", "values": [
      {"measurement": "stoichiometry N", "setting": "[1]", "result": "4 and 2"},
      {"measurement": "stoichiometry N", "setting": "[2]", "result": "4 and 2"}
    ]},
    {"substance": "Vip3Aa64 protoxin E168C:N242C (natural protein)", "values": [
      {"measurement": "stoichiometry N", "setting": "[3]", "result": 4},
      {"measurement": "stoichiometry N", "setting": "[4]", "result": 4}
    ]},
    {"substance": "Vip3Aa64 protoxin F229Y (natural protein)", "values": [
      {"measurement": "stoichiometry N", "setting": "[5]", "result": "4 and 2"},
      {"measurement": "stoichiometry N", "setting": "[6]", "result": "4 and 2"}
    ]},
    {"substance": "Vip3Aa64 protoxin N242C (natural protein)", "values": [
      {"measurement": "stoichiometry N", "setting": "[7]", "result": 4},
      {"measurement": "stoichiometry N", "setting": "[8]", "result": 4}
    ]},
    {"substance": "Vip3Aa64 protoxin T167C (natural protein)", "values": [
      {"measurement": "stoichiometry N", "setting": "[9]", "result": 4},
      {"measurement": "stoichiometry N", "setting": "[10]", "result": 4}
    ]}
  ]
}
